The values that follow come from publication PMC9554468, “Assessing potency and binding kinetics of soluble adenylyl cyclase (sAC) inhibitors to maximize therapeutic potential” (Frontiers in Physiology, 2022).

In assay [1] the target is T1, immobilized His-tagged human sACt protein (Homo sapiens, UniProt Q96PN6).
T1 construct: SPR used highly pure C-terminal tagged sACt-His6; made in house; host or cells: Sf9 insect cells (baculovirus)
T1 sequence (Q96PN6 1-469 limits assumed): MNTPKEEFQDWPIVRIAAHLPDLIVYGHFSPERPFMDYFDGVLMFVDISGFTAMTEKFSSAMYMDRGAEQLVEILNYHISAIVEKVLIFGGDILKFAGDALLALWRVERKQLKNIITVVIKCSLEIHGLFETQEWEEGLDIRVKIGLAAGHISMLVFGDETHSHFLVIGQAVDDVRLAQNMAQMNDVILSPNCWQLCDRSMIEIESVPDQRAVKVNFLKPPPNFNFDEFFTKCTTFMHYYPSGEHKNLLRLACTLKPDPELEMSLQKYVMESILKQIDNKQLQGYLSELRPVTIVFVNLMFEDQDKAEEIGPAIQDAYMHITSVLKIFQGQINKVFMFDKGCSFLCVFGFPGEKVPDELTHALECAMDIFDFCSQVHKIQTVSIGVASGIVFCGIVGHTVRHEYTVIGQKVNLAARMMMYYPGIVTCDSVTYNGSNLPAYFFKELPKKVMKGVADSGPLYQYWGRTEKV
Put plainly: surface plasmon resonance with purified sAC protein. Format: binding.

In assay [2] the target is T2, purified recombinant human soluble adenylyl cyclase (sAC) protein (Homo sapiens, UniProt Q96PN6).
T2 sequence (Q96PN6 1-469 limits assumed): T1 sequence (Q96PN6 1-469 limits assumed)
Kind of assay: biochemical. As to conditions: ~0.25 nM sAC, 2 mM ATP, 10 mM Mn2+, 30°C; read-out: Subnanomolar assay IC50.

For `Cc1c(Cc2ccccc2)c(-c2cc(Cl)nc(N)n2)nn1C` [TDI-10229], the Ki (as a rule, a dissociation constant, usually derived from enzyme kinetics or from competition with a known ligand) worked out at 193 ± 27 nM in assay [1] (25°C SPR affinity, 25°C) and 423 ± 16 nM in assay [1] (37°C SPR affinity, 37°C).

Turning to `Cn1cc(Cc2ccccc2OCCN2CCOCC2)c(-c2cc(Cl)nc(N)n2)n1` [TDI-11155], the IC50 (as a rule, the concentration that gives 50% inhibition) in assay [2] is 11 nM.
